CycPeptMPDB entries from one study

Collected by the curators of CycPeptMPDB (Li et al. 2023) from Townsend et al. 2020, doi:10.26434/chemrxiv.13335941.v1.

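Lipid, pH, incubation time, direction and concentration are not recorded in the data file. Other peptides of the study may be missing here. Entries at the database's floor value (log10 P of -10) are not listed.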

PAMPA measures passive passage through an artificial lipid membrane. Permeability is in 10^-6 cm/s, converted from the database's log10 values; higher is more permeable.

- CC(C)C[C@@H]1NC(=O)[C@H](C)N(C)C(=O)[C@H](Cc2ccccc2)NC(=O)[C@@H](CC(C)C)NC(=O)[C@H]2CCCN2C(=O)[C@H](CC(C)C)NC1=O: PAMPA 0.87 × 10^-6 cm/s
- CC(C)C[C@@H]1NC(=O)[C@@H](CC(C)C)NC(=O)[C@@H](C)NC(=O)[C@@H]2CCCN2C(=O)[C@H](Cc2ccccc2)NC(=O)CN(Cc2ccccc2)C(=O)[C@@H]2CCCN2C1=O: PAMPA 0.33 × 10^-6 cm/s
- CCCN1CC(=O)N[C@H](CC(C)C)C(=O)N[C@@H](Cc2ccccc2)CC(=O)N2CCC[C@@H]2C(=O)N(C)[C@H](CC(C)C)C(=O)N[C@@H](Cc2ccccc2)C(=O)N2CCC[C@@H]2C1=O: PAMPA 3.3 × 10^-6 cm/s
- CCCN1CC(=O)N(C)[C@@H](CC(C)C)C(=O)N[C@H](CC(C)C)C(=O)N2CCC[C@@H]2C(=O)N[C@@H](CC(C)C)C(=O)N[C@@H](Cc2ccccc2)C(=O)N2CCC[C@@H]2C1=O: PAMPA 1.4 × 10^-6 cm/s
- CC(C)C[C@@H]1C(=O)N2CCC[C@H]2C(=O)N(C)[C@@H](CC(C)C)C(=O)N[C@@H](Cc2ccccc2)C(=O)N2CCC[C@H]2C(=O)N(C)[C@@H](C)C(=O)N(C)[C@@H](CC(C)C)C(=O)N1C: PAMPA 4 × 10^-6 cm/s
- CC(C)C[C@@H]1C(=O)N(C)[C@@H](CC(C)C)C(=O)N2CCC[C@@H]2C(=O)N[C@H](CC(C)C)C(=O)N[C@@H](Cc2ccccc2)C(=O)N(C)[C@@H](C)C(=O)N1C: PAMPA 4.3 × 10^-6 cm/s
- CC(C)C[C@@H]1C(=O)N[C@@H](Cc2ccccc2)C(=O)N2CCC[C@@H]2C(=O)N[C@H](C)C(=O)N[C@H](CC(C)C)C(=O)N(Cc2ccccc2)CC(=O)N2CCC[C@@H]2C(=O)N1C: PAMPA 0.95 × 10^-6 cm/s
- CC(C)C[C@@H]1C(=O)N[C@@H](Cc2ccccc2)C(=O)N(C)[C@H](C)C(=O)N[C@H](CC(C)C)C(=O)N(Cc2ccccc2)CC(=O)N2CCC[C@H]2C(=O)N1C: PAMPA 5 × 10^-6 cm/s
- CCCN1CC(=O)N[C@H](CC(C)C)C(=O)N(C)[C@@H](CC(C)C)C(=O)N2CCC[C@H]2C(=O)N(Cc2ccccc2)CC(=O)N[C@@H](Cc2ccccc2)C(=O)N2CCC[C@@H]2C1=O: PAMPA 4.4 × 10^-6 cm/s
- CC(C)C[C@@H]1NC(=O)[C@@H](CC(C)C)NC(=O)[C@@H](C)NC(=O)[C@H]2CCCN2C(=O)[C@H](Cc2ccccc2)NC(=O)CN(Cc2ccccc2)C(=O)[C@@H]2CCCN2C1=O: PAMPA 0.25 × 10^-6 cm/s
- CC(C)C[C@@H]1C(=O)N(Cc2ccccc2)CC(=O)N2CCC[C@H]2C(=O)N(C)[C@H](CC(C)C)C(=O)N[C@@H](Cc2ccccc2)C(=O)N[C@H](C)C(=O)N1C: PAMPA 1.3 × 10^-6 cm/s
- CC(C)C[C@H]1NC(=O)[C@H](C)N(C)C(=O)[C@H]2CCCN2C(=O)[C@H](Cc2ccccc2)NC(=O)[C@H](CC(C)C)N(C)C(=O)[C@@H]2CCCN2C(=O)C[C@H](Cc2ccccc2)NC1=O: PAMPA 2.3 × 10^-6 cm/s
- CC(C)C[C@@H]1C(=O)N[C@@H](Cc2ccccc2)C(=O)N2CCC[C@@H]2C(=O)N(C)[C@@H](C)C(=O)N[C@H](CC(C)C)C(=O)N[C@H](CC(C)C)C(=O)N2CCC[C@@H]2C(=O)N1C: PAMPA 5 × 10^-6 cm/s
- CC(C)C[C@@H]1NC(=O)[C@@H](C)N(C)C(=O)[C@H]2CCCN2C(=O)[C@H](Cc2ccccc2)NC(=O)[C@H](CC(C)C)N(C)C(=O)[C@H]2CCCN2C(=O)[C@H](CC(C)C)N(C)C1=O: PAMPA 7.9 × 10^-6 cm/s
- CC(C)C[C@@H]1NC(=O)C[C@H](Cc2ccccc2)NC(=O)[C@H](Cc2ccccc2)NC(=O)[C@H](CC(C)C)N(C)C(=O)[C@H]2CCCN2C(=O)[C@@H](CC(C)C)NC1=O: PAMPA 5.4 × 10^-6 cm/s
- CC(C)C[C@H]1NC(=O)CN(Cc2ccccc2)C(=O)[C@H](C)N(C)C(=O)[C@H]2CCCN2C(=O)[C@H](Cc2ccccc2)NC(=O)CN(Cc2ccccc2)C(=O)[C@H]2CCCN2C1=O: PAMPA 1.6 × 10^-6 cm/s
- CC(C)C[C@@H]1C(=O)N(Cc2ccccc2)CC(=O)N2CCC[C@H]2C(=O)N(Cc2ccccc2)CC(=O)N[C@@H](Cc2ccccc2)C(=O)N2CCC[C@@H]2C(=O)N(C)[C@@H](C)C(=O)N1C: PAMPA 3.5 × 10^-6 cm/s
- CCCN1CC(=O)N[C@H](CC(C)C)C(=O)N[C@@H](CC(C)C)C(=O)N2CCC[C@@H]2C(=O)N[C@@H](CC(C)C)C(=O)N[C@@H](Cc2ccccc2)C(=O)N2CCC[C@H]2C1=O: PAMPA 1.2 × 10^-6 cm/s
- CC(C)C[C@@H]1NC(=O)[C@@H](C)N(C)C(=O)[C@@H]2CCCN2C(=O)[C@H](Cc2ccccc2)NC(=O)[C@H](CC(C)C)N(C)C(=O)[C@@H]2CCCN2C(=O)[C@H](CC(C)C)NC1=O: PAMPA 1 × 10^-6 cm/s
- CC(C)C[C@@H]1C(=O)N[C@@H](Cc2ccccc2)C(=O)N2CCC[C@H]2C(=O)N(C)[C@@H](C)C(=O)N(C)[C@@H](CC(C)C)C(=O)N(Cc2ccccc2)CC(=O)N2CCC[C@H]2C(=O)N1C: PAMPA 1 × 10^-6 cm/s
- CC(C)C[C@H]1NC(=O)[C@H](C)NC(=O)[C@H](Cc2ccccc2)NC(=O)CN(Cc2ccccc2)C(=O)[C@@H]2CCCN2C(=O)CN(Cc2ccccc2)C1=O: PAMPA 0.39 × 10^-6 cm/s
- CC(C)C[C@@H]1C(=O)N2CCC[C@@H]2C(=O)N[C@H](CC(C)C)C(=O)N[C@@H](Cc2ccccc2)C(=O)N2CCC[C@H]2C(=O)N(C)[C@@H](C)C(=O)N[C@H](CC(C)C)C(=O)N1C: PAMPA 2 × 10^-6 cm/s
- CC(C)C[C@@H]1NC(=O)[C@H]2CCCN2C(=O)CN(Cc2ccccc2)C(=O)[C@@H](CC(C)C)N(C)C(=O)C[C@H](Cc2ccccc2)NC(=O)[C@@H]2CCCN2C(=O)[C@H](Cc2ccccc2)NC1=O: PAMPA 1.3 × 10^-6 cm/s

Extract of 2 entries:

compound	PAMPA (10^-6 cm/s)
CC(C)C[C@@H]1NC(=O)[C@@H](CC(C)C)NC(=O)[C@@H](C)NC(=O)[C@H]2CCCN2C(=O)[C@H](Cc2ccccc2)NC(=O)CN(Cc2ccccc2)C(=O)[C@@H]2CCCN2C1=O	0.25
CC(C)C[C@@H]1C(=O)N(Cc2ccccc2)CC(=O)N2CCC[C@H]2C(=O)N(Cc2ccccc2)CC(=O)N[C@@H](Cc2ccccc2)C(=O)N2CCC[C@@H]2C(=O)N(C)[C@@H](C)C(=O)N1C	3.5